{"sequences": {"note": "By UniProt entry, the sequences of proteins in these tests, tags left out. Residues count along the entry.", "UniProt P03372, 298-554 limits assumed": "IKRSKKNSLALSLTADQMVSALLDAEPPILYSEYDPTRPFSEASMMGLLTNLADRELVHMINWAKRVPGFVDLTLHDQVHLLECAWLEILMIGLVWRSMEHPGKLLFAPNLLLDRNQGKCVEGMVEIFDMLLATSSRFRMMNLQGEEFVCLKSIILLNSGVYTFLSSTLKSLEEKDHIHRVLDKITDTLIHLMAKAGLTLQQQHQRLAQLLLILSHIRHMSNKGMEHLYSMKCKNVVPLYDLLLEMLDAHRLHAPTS"}, "source": "paper PMC9681730", "about": "“DeepPROTACs is a deep learning-based targeted degradation predictor for PROTACs” (Nature Communications, 2022)", "biological_target": "ERα-LBD (estrogen receptor, ER) (Homo sapiens, UniProt P03372)", "test": "ITC (reverse titration, purified ERα-LBD)"}
{"smiles": "Cc1ncsc1-c1ccc(CNC(=O)[C@@H]2C[C@H](O)CN2C(=O)[C@@H](NC(=O)CCCCCCCCCC(=O)NCCOc2ccc(C(=C(CCCl)c3ccccc3)c3ccc(O)cc3)cc2)C(C)(C)C)cc1", "values": [{"measurement": "Kd", "value": 2.82, "unit": "µM"}]}
